The list shows a part of the results, in another mix than the full data. Activity calls are given as the source filed them.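 The calls were made as follows: active = a compound raising TNF-alpha-driven VCAM-1 surface staining, with its hit status upheld on visual or statistical review; inactive = the rest, including hits rejected on review.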

The test is described as follows: boosters of cytokine-driven VCAM-1 levels – cell-based, plate reader, pooled HUVEC, TNFa stimulus (AID 455). The following applies: HUVEC TNFa-induced VCAM-1 immunofluorescence.
In the case of `CP(=S)(Nn1cnnc1)Oc1ccccc1` (stereo not given), the result was inactive.

As to `Cc1ccc(C)c(NP(C)(=O)Oc2ccccc2)c1` (stereo not given), the compound was called inactive.

`CN(C)CCOC(=O)C(O)(c1ccccc1)C1CCCCC1` (stereo not given): the call was inactive.

For the compound `CP(=O)(Nc1ccc2c(c1)OCCO2)Oc1ccccc1` (stereo not given), the result was inactive.

Consider `CP(=O)(Nc1ccccn1)Oc1ccccc1` (stereo not given), for which the call was inactive.

The values above are taken from PubChem BioAssay AID455 (Sanford-Burnham Center for Chemical Genomics, 2006).
